Results taken from PubChem BioAssay AID2069 (Sanford-Burnham Center for Chemical Genomics, 2009).
Only a part is listed here, and it is no random draw. Activity calls are given as the source filed them. Rule as the data show it: active = inhibition above about 30%; inactive = the rest.

Test: HTRF signal interference by compounds, confirmation, artefact control for SUMOylation inhibitor project, biochemical, uHTS (AID 2069)
Details: HTRF interference counterscreen, fluorescence, at 35 µM, hits give high values

Structure (SMILES) | inhibition
Nc1cccc2c([As](=O)(O)O)cccc12 | inactive: 27.9%
Nc1cccc2ccc([As](=O)(O)O)cc12 | inactive: 25%
